{"source": "paper PMC7369641", "about": "“Synthesis of SMT022357 enantiomers and in vivo evaluation in a Duchenne muscular dystrophy mouse model” (Tetrahedron, 2020)", "origin": "cited, not measured here", "system": "utrophin protein in EDL muscle of mdx mice", "conditions": "2-week-old mdx mice, orally dosed daily with 30 mg/kg for 5 weeks; cited from earlier work"}
{"smiles": "CCP(=O)(OC)c1ccc2oc(-c3cccc(C(F)(F)F)c3)nc2c1", "note": "(racemic) [(±)-4, Methyl ethyl(2-(3-(trifluoromethyl)phenyl)benzo[d]oxazol-5-yl)phosphinate]", "values": [{"measurement": "Utrophin expression in skeletal and cardiac muscles", "result": "increased utrophin expression in skeletal and cardiac muscles"}]}
